For orientation: Kd means the constant that tells how readily two partners part at equilibrium. A low value points to a tighter complex. One may read the koff as the first-order rate constant of dissociation. Lower therefore signals slow dissociation.

The target in assay [1] is T1, RAC1^P29S, purified (human, UniProt P63000 1-192, P29S). As to the kind of experiment: mGppNHp-bound RAC1.
For assay [2], the target named is T2, RAC1^F28L, purified (human, UniProt P63000 1-192, F28L). As to the kind of experiment: mGppNHp-bound RAC1.
The target of assay [3] is T1, RAC1^P29S, purified. As to the kind of experiment: mGppNHp-bound RAC1. The source holds these as a separate data set.
Assay [4] has as its target T2, RAC1^F28L, purified. Description: mGppNHp-bound RAC1. This is another data set of the same source.
Assay [5] addresses T1, RAC1^P29S, purified. Description: FP; mGppNHp-bound RAC1.
The target in assay [6] is T2, RAC1^F28L, purified. As to the kind of experiment: FP; mGppNHp-bound RAC1.
Assay [7] has as its target T3, RAC1^T17N, purified (human, UniProt P63000 1-192, T17N). Description: mGppNHp-bound RAC1.
Assay [8] has as its target T1, RAC1^P29S, purified. Description: mdGDP-bound RAC1.
In assay [9] the target is T3, RAC1^T17N, purified. Description: mdGDP-bound RAC1.
The target of assay [10] is T2, RAC1^F28L, purified. Description: mdGDP-bound RAC1.
Assay [11] has as its target T1, RAC1^P29S, purified. As to the kind of experiment: mdGDP-bound RAC1. The source holds these as a separate data set.

B1: GST-PAK1 RBD (RAC1 binding domain of p21-activated kinase 1) (domain or fragment)
chain: SILPGDKTNKKKEKERPEISLPSDFEHTIHVGFDAVTGEFTGMPEQWARLLQTSNITKSEQKKNPQAVLDVLEFYNSKKTSNSQK
For B1, the Kd is 4370 nM in the assay with RAC1^P29S, purified [1]; 510 nM with RAC1^F28L, purified [2]; 8740 nM with RAC1^P29S, purified [5]; 850 nM with RAC1^F28L, purified [6]. Further, the koff came to 0.075 s⁻¹ in the assay with RAC1^P29S, purified [3] and 0.0022 s⁻¹ with RAC1^F28L, purified [4].

B2: His-IQGAP1 C794 (C-terminal 794 amino acids of IQ motif-containing GTPase-activating protein 1) (domain or fragment)
chain: PPMVVVRKFVHLLDQSDQDFQEELDLMKMREEVITLIRSNQQLENDLNLMDIKIGLLVKNKITLQDVVSHSKKLTKKNKEQLSDMMMINKQKGGLKALSKEKREKLEAYQHLFYLLQTNPTYLAKLIFQMPQNKSTKFMDSVIFTLYNYASNQREEYLLLRLFKTALQEEIKSKVDQIQEIVTGNPTVIKMVVSFNRGARGQNALRQILAPVVKEIMDDKSLNIKTDPVDIYKSWVNQMESQTGEASKLPYDVTPEQALAHEEVKTRLDSSIRNMRAVTDKFLSAIVSSVDKIPYGMRFIAKVLKDSLHEKFPDAGEDELLKIIGNLLYYRYMNPAIVAPDAFDIIDLSAGGQLTTDQRRNLGSIAKMLQHAASNKMFLGDNAHLSIINEYLSQSYQKFRRFFQTACDVPELQDKFNVDEYSDLVTLTKPVIYISIGEIINTHTLLLDHQDAIAPEHNDPIHELLDDLGEVPTIESLIGESSGNLNDPNKEALAKTEVSLTLTNKFDVPGDENAEMDARTILLNTKRLIVDVIRFQPGETLTEILETPATSEQEAEHQRAMQRRAIRDAKTPDKMKKSKSVKEDSNLTLQEKKEKIQTGLKKLTELGTVDPKNKYQELINDIARDIRNQRRYRQRRKAELVKLQQTYAALNSKATFYGEQVDYYKSYIKTCLDNLASKGKVSKKPREMKGKKSKKISLKYTAARLHEKGVLLEIEDLQVNQFKNVIFEISPTEEVGDFEVKAKFMGVQMETFMLHYQDLLQLQYEGVAVMKLFDRAKVNVNLLIFLLNKKFYGK
Consider B2, for which the Kd was 145 nM with RAC1^P29S, purified [1]; 634 nM in the assay with RAC1^T17N, purified [7]; 332 nM with RAC1^F28L, purified [2].

B3: GST-GDI1 (guanosine dissociation inhibitor 1, full-length) (natural protein)
chain: MAEQEPTAEQLAQIAAENEEDEHSVNYKPPAQKSIQEIQELDKDDESLRKYKEALLGRVAVSADPNVPNVVVTGLTLVCSSAPGPLELDLTGDLESFKKQSFVLKEGVEYRIKISFRVNREIVSGMKYIQHTYRKGVKIDKTDYMVGSYGPRAEEYEFLTPVEEAPKGMLARGSYSIKSRFTDDDKTDHLSWEWNLTIKKDWKD
Regarding B3, the Kd with RAC1^P29S, purified [8] is 930 nM; with RAC1^T17N, purified [9], 11100 nM; with RAC1^F28L, purified [10], 860 nM. The same molecule displayed a koff with RAC1^P29S, purified [11] of 1.11 s⁻¹.

Values taken from paper PMC12702776 (2025).
